Laboratory results taken from US20070148136A1, “Methods of using ammonia oxidizing bacteria” (priority 2003, published 2007).
Like-named read-outs stand apart in the source and are kept apart here.

Question: With linear alkylbenzene sulfonates [LAS] as the substance, how does the “LAS concentration at the solubility limit of Ca(LAS)2” value (LAS MW 339, Ksp 1.8 e-11) read?
Answer: The value was 26 ppm.

Question: And the “LAS concentration at the solubility limit of Ca(LAS)2” value (calcium 3 mM/L as in human sweat, LAS MW 343)?
Answer: The value was 18 ppm.
